Results as given in article PMC10870044, “The Interplay Between HIF‐1α and EZH2 in Lung Cancer and Dual‐Targeted Drug Therapy” (Advanced Science, 2023).

Tested on: HIF‐1α
Test: Western blot of HIF-1α after EZH2 inhibitors
Type: cell-based
Settings: compared to the control group

## CCN(c1cc(-c2ccc(CN3CCOCC3)cc2)cc(C(=O)NCc2c(C)cc(C)[nH]c2=O)c1C)C1CCOCC1 [EPZ6438]
  HIF‐1α protein levels: significantly higher levels of HIF‐1α protein
